# Experimental logP (octanol/water) values from OPERA 2.9

From the experimental data distributed with OPERA 2.9.

The octanol-water partition coefficient is given as log10; larger values mean a more lipophilic compound.
The databases behind each value are named after "via".

| structure (SMILES) | logP | via |
|---|---|---|
| OCC1CCCO1 (stereo not given) | 0.291 | eChemPortal |
| C[SiH]1O[SiH](C)O[SiH](C)O[SiH](C)O1 (stereo not given) | 5.54 | eChemPortal |
| CN(C)CCOC(=O)c1ccccc1/N=N/c1ccc(O)c(/N=N/c2ccccc2C(=O)OCCN(C)C)c1O.CS(=O)(=O)O.CS(=O)(=O)O | -1.2 | eChemPortal |
| Clc1ccc(-c2cc(Cl)cc(Cl)c2Cl)cc1 | 6.17 | OCHEM |
| Nc1cccnn1 | -0.22 | OCHEM |
| CCCCCCCOC(=O)CCC(=O)OCCCCCCC | 5.1 | eChemPortal |
| OCC#CCO | -0.73 | PubChem, eChemPortal |
| COc1ccccc1N1CCN(CCNC(C)=O)CC1 | 0.5 | OCHEM |
| CC(C)CC(=O)CC(C)C | 3.71 | eChemPortal |
| CCCC[N+](C)(C)C.[I-] | -2.6 | OCHEM |
| CCN(CCC#N)c1ccc(/C=C/C2=[N+](C)c3ccccc3C2(C)C)c(C)c1.O=P([O-])(O)O | -1.744 | eChemPortal |
| CCCCCCCC/C=C\CCCCCCCCN | 3.11 | OFMPub |
| CCN(CC)c1ccc2cc(C3(S(=O)(=O)[O-])Nc4cc(S(N)(=O)=O)ccc4O3)c(=O)oc2c1.[Na+] (stereo not given) | 1.141 | eChemPortal |
| NC(=S)NN=Cc1ccc(O)cn1 | 1.04 | OCHEM |
| CC(=O)[O-].CCn1cc[n+](C)c1 | -2.25 | eChemPortal |
| CC1=NN(c2cccc(S(=O)(=O)O)c2)C(=N)C1 | -1.951 | eChemPortal |
| Cc1cc(S(=O)(=O)[O-])c(/N=N/c2c(O)c(C(=O)[O-])cc3ccccc23)cc1Cl.[Ba+2] | 0.11 | eChemPortal |
| COC(=O)OC | 0.354 | eChemPortal |
| CC[C@]1(O)C[C@H]2C[N@](CCc3c([nH]c4ccccc34)[C@@](C(=O)OC)(c3cc4c(cc3OC)N(C=O)[C@H]3[C@@](O)(C(=O)OC)[C@H](OC(C)=O)[C@]5(CC)C=CCN6CC[C@]43[C@@H]65)C2)C1 | 2.82 | OCHEM |
| COc1c(O)c(Br)cc(C=O)c1[N+](=O)[O-] | 1.88 | OCHEM |
| CC1(C)C(=O)N(CCO)C(=O)N1CCO | 0.048 | eChemPortal |
| CCN(CC)c1ccc(C(C2=CC(=O)C(S(=O)(=O)[O-])=CC2=S(=O)([O-])O)=C2C=CC(=[N+](CC)CC)C=C2)cc1.[Na+] | -2.31 | eChemPortal |
| CCCCOC(=O)CCC | 2.16 | eChemPortal |
| O=c1c2ccccc2c(=O)c2c1ccc1[nH]c3c(ccc4c(=O)c5ccccc5c(=O)c43)[nH]c12 | 1.78 | eChemPortal |
| O=C(O)CCCn1nc2ccccc2n1 | 0.6 | OCHEM |
| Oc1ccc(F)cc1F | 1.46 | OCHEM |
| O=C1c2cccc(Sc3ccccc3)c2C(=O)c2c(Sc3ccccc3)cccc21 | 3.38 | eChemPortal |
| Nc1cc[n+]([O-])c2ccccc12 | 0.05 | OCHEM |
| O=C(Nc1ccccc1)c1cc2ccccc2cc1O | 4.62 | OCHEM |
| Nc1nc(Cl)nc(Nc2ccc(S(=O)(=O)[O-])c(/N=N/c3c(S(=O)(=O)[O-])cc4cc(S(=O)(=O)[O-])c(/N=N/c5cc(S(=O)(=O)[O-])ccc5S(=O)(=O)[O-])c(N)c4c3O)c2)n1.[Na+].[Na+].[Na+].[Na+].[Na+] | -3.96 | eChemPortal |
| O=C1c2ccccc2-c2ccc([N+](=O)[O-])cc21 | 3.06 | OCHEM |
| CC(CN=Cc1ccccc1O)N=Cc1ccccc1O (stereo not given) | 3.6 | eChemPortal |
| CCOc1ccc(C=O)cc1 | 2.09 | OCHEM |
| CCC[Si](OCC)(OCC)OCC | 3.1 | eChemPortal |
| COC(=O)[C@@H](C)O | -0.2 | eChemPortal |
| O=C1/C(=C2\Nc3ccc(S(=O)(=O)[O-])cc3C2=O)Nc2ccc(S(=O)(=O)[O-])cc21.[Na+].[Na+] | -3.57 | eChemPortal |
| Cl[Si](Cl)(Cl)c1ccccc1 | -0.021 | eChemPortal |
| O=C1c2ccccc2C(=O)c2c(Cl)cccc21 | 3.98 | OCHEM |
| CCCCCCCCCCCOC(=O)CCC | 6.11 | OCHEM |
| CC(O)CN(CCCN(C)C)CC(C)O (stereo not given) | 1.24 | eChemPortal |
| CC(O)=N[C@@H](Cc1cnc[nH]1)C(=N)O | -1.7 | OCHEM |
| COC(=O)c1cc(C(=O)OC)cc(S(=O)(=O)[O-])c1.[Na+] | -2.86 | eChemPortal |
| O=[N+]([O-])c1ccc2c(ccc[n+]2[O-])c1 | 0.39 | OCHEM |
| Oc1c(I)cc(I)c2cccnc12 | 4 | eChemPortal |

Excerpt, the final 6 entries:

structure (SMILES)	logP	via
CCCCCCCCCCCOC(=O)CCC	6.11	OCHEM
CC(O)CN(CCCN(C)C)CC(C)O (stereo not given)	1.24	eChemPortal
CC(O)=N[C@@H](Cc1cnc[nH]1)C(=N)O	-1.7	OCHEM
COC(=O)c1cc(C(=O)OC)cc(S(=O)(=O)[O-])c1.[Na+]	-2.86	eChemPortal
O=[N+]([O-])c1ccc2c(ccc[n+]2[O-])c1	0.39	OCHEM
Oc1c(I)cc(I)c2cccnc12	4	eChemPortal

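The OPERA project collected these measurements from public sources as training and test data for property models. One number stands for a compound and property, with no spread given. How each value was measured is not recorded, so precision varies. Where a salt, mixture or single isomer is drawn, the source does not say that exactly this form was tested. Some entries may be limits or estimates that an upstream database listed as plain numbers.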